## Yeast mating assay B: variants of the scFv Ab-14

Source: Li et al. 2023 (doi:10.1038/s41467-023-39022-2), MIT Lincoln Laboratory and A-Alpha Bio; data file from the FLAb repository.

Antigen: PDVDLGDISGINAS, a 14-residue peptide of the SARS-CoV-2 spike HR2 region.

The variants keep the heavy chain, the linker and the frameworks of Ab-14 (scFv order VH, three GGGGS repeats, VL).
VH: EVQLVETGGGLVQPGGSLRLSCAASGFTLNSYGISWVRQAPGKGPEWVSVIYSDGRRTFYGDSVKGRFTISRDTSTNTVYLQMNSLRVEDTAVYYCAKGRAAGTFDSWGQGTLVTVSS
VL: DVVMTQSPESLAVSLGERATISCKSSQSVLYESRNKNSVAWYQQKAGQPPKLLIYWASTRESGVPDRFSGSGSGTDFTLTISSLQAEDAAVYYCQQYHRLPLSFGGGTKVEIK

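The starting antibody came from a phage panning campaign against this peptide. These sequences belong to a second round, designed from the earlier measurements on random variants of the parent. Their group label is 14L_GP_Gibbs (GP: Gaussian process model; Gibbs: Gibbs sampling; a sequence that several methods proposed may carry one label only). The assay is AlphaSeq: two haploid yeast populations carry antibody and antigen on their surface. Pairs that bind mate more often; barcode pairs of the diploids are counted by sequencing. Each replicate has its own calibration line, from reference interactions of the BCL2 family. Mating was done six times.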

Positions count from residue 1 of the parent VL; K24L puts L in place of K. Numbers give log10(Kd / nM), so 0 is 1 nM and 3 is 1 µM. Smaller is tighter. "n.d." means that the variant was in the library but no mating with the target was seen in that replicate; the authors take this as a sign of poor binding, and no number exists. Background: pairings of all light chain designs with three empty control strains gave a value in 4% of cases (median 2.64, 5th percentile 1.59). Values in that range, when seen in few replicates, are hard to tell from nonspecific mating. For each scFv, signals with the empty controls are counted beside the result, with their mean in brackets. Of ten entries with the parent sequence, four were seen in most replicates (averages 0.34 to 2.37), three in one and three in none, so single entries are noisy. Values of this round are not directly comparable with the first-round values of the same sequences. The authors averaged sequences with at least three values out of six and counted those with two or fewer as poor binders.

changes	replicates, log10 nM	control signals
K24L/S25L/S26Q/V29E/L30G/W56D/Q96A	0.78 0.02 0.26 0.05 0.34 0.36	2/18 (3.07)
S25L/Q27Y/V29D/L30G/Y31G/E32L/S33Q/W56E/S62M	0.56 0.47 0.39 0.33 0.34 0.48	0/18
S25V/S26Y/V29H/K36D/S38N/W56Q/T59Y	1.01 1.64 1.73 0.73 1.73 0.71	0/18
S25V/S26M/V29M/L30W/W56H/T59M/S62Q/S103Q	0.42 0.25 0.07 0.14 0.16 0.40	0/18
S26A/Q27Y/V29E/L30G/R34A/W56S/E61S	0.26 0.12 0.15 -0.08 0.04 0.27	3/18 (2.18)
S25L/S26Q/Q27F/S28G/V29N/W56K/E61L/S62Q	0.81 1.76 1.23 0.83 0.60 1.66	2/18 (2.46)
S25A/V29G/N35V/W56S/T59M	1.26 0.77 0.73 0.86 0.67 0.72	0/18
S25I/S26Q/S28E/V29G/L30E/W56S/E61C/S62P	0.04 -0.14 -0.17 -0.37 -0.31 -0.28	0/18
S25L/S26Y/V29Q/E32L/K36M/S38A/W56N/T59Q/E61M	-0.24 -0.37 -0.41 -0.50 -0.42 -0.26	4/18 (2.97)
S25M/Y31Q/S33E/K36D/W56S/E61C	0.30 0.10 0.24 -0.03 0.17 0.16	2/18 (3.08)
S25V/Q27P/V29Q/L30E/N37Q/W56H/T59L/S62E	-0.06 0.11 -0.09 0.06 0.00 0.31	0/18
S25L/S26M/V29M/K36S/W56Q/S62H/S103M	0.43 0.11 0.19 0.19 0.18 0.39	1/18 (2.23)
S25Q/Q27P/S28Q/V29Q/E32S/S38Q/W56D	1.40 1.14 0.88 1.41 0.90 0.82	1/18 (2.35)
S25L/S26E/S28G/L30D/Y31M/W56N/S58Q/T59M	0.40 0.40 -0.05 -0.23 0.23 0.25	0/18
S25L/S26D/Q27P/V29D/Y31G/W56Q/T59Q/S62I/R99Q	0.63 0.24 0.00 -0.06 0.19 0.30	2/18 (2.96)
S25Q/S26Q/V29E/Y31Q/E32S/W56N/T59E	0.69 0.98 0.86 0.64 0.46 0.70	0/18
S25V/S26D/V29W/L30D/W56N/S62R	-0.27 -0.12 -0.33 -0.47 -0.31 -0.15	0/18
S25M/S26D/S28W/L30D/E32G/S33D/N35W/W56N/S62Q	0.20 0.25 0.04 0.19 0.00 0.16	0/18
S25I/V29A/Y31M/S33P/W56N/E61Q/S62M	3.07 1.45 1.66 1.34 0.70 1.31	0/18
S25F/S26Q/S28M/L30M/Y31Q/S33D/W56Q/E61M/S62Q	0.03 0.01 0.11 -0.09 -0.12 -0.06	0/18
V29E/K36G/W56N/T59Y/S62D	0.04 0.19 0.58 -0.15 -0.05 0.13	0/18
S25L/S28Q/V29W/W56N/T59L/E61L/Q96C	0.63 1.00 0.34 1.01 0.34 0.94	0/18
S25L/V29N/L30G/N35M/W56N/T59Q	0.15 0.38 -0.01 0.14 0.41 0.93	0/18
S25I/Q27C/V29E/L30Y/E32G/S33D/N37M/W56D/T59Q	0.27 0.11 -0.05 0.01 0.03 0.00	0/18
Q27G/V29Q/S33D/W56S/T59Q	1.26 1.26 0.05 0.42 0.48 0.95	0/18
S25L/Q27M/V29H/L30G/E32G/N35M/W56Q/T59Q/S62E	0.48 0.63 0.64 0.53 0.76 0.87	3/18 (2.62)
K24Q/S25V/V29H/W56E/S62Q	-0.04 -0.13 -0.32 -0.39 -0.32 -0.26	0/18
S25W/Q27C/V29Q/E32D/R34A/W56N/S58Q/E61M/S62M	0.27 0.09 0.10 0.14 0.29 0.54	1/18 (3.94)
Q27W/S28G/L30D/Y31D/K36D/W56K/E61L	0.35 -0.12 0.01 0.07 0.07 -0.10	0/18
S25L/S26Q/Q27M/V29E/L30M/Y31M/N35W/K36C/W56Q/S62E	0.28 0.14 0.23 0.27 0.04 0.39	2/18 (1.70)
S25L/S26Q/V29W/L30E/K36S/W56Q/E61M	0.55 0.27 0.61 1.05 0.58 0.55	1/18 (1.63)
S25L/S26L/Y31L/K36S/W56N/S62L	0.64 0.07 0.16 0.06 0.23 0.30	2/18 (2.36)
S25T/S26E/Q27G/V29W/W56N/T59E	-0.20 -0.30 -0.25 -0.56 -0.41 -0.05	3/18 (2.58)
S25L/S26M/Q27Y/V29K/L30E/N35M/W56E/T59V/S62E	-0.24 -0.21 1.38 -0.01 -0.01 0.56	0/18
S25L/S26M/V29W/L30D/W56D/T59K/E61M/S62Q	0.12 0.06 0.00 -0.06 -0.12 0.27	1/18 (2.71)
S25F/V29W/L30G/Y31M/S38Q/W56N/E61M	0.64 0.41 0.22 0.26 0.30 0.60	3/18 (2.22)
K24H/S25L/V29Q/L30D/W56N/E61L/S62H	0.24 0.15 0.19 0.08 0.03 0.37	1/18 (2.53)
Q27P/V29Q/S33D/N35M/K36D/W56N/T59Y	n.d. 1.66 1.10 2.16 n.d. n.d.	0/18
S26Y/L30W/W56N/T59L/E61C	1.39 1.55 1.25 1.13 1.51 1.93	1/18 (1.83)
S25L/S26Q/Q27I/V29D/L30G/S33Q/W56E/E61C/S62D	-0.16 -0.32 -0.43 -0.40 -0.39 -0.22	0/18
S25L/V29M/K36D/W56Q/S103M	-0.17 -0.40 -0.12 -0.28 -0.40 -0.17	1/18 (2.07)
S25L/S26Q/V29F/S33E/K36P/W56N/T59K/S62L	-0.03 -0.25 -0.49 -0.36 -0.27 -0.16	2/18 (4.08)
S25L/S28Q/V29M/S33E/K36S/S38N/W56H/T59H	-0.24 -0.19 -0.44 -0.41 -0.34 -0.23	2/18 (2.74)
S25W/S26E/Q27W/V29Q/W56N/H98R	0.15 0.06 -0.15 0.06 -0.20 0.11	2/18 (3.34)
S25L/S26D/V29F/W56E/T59E	-0.23 -0.23 -0.16 -0.18 -0.47 -0.04	0/18
S25L/S28Q/V29W/L30E/K36S/S38N/W56A/S62D	-0.27 -0.29 -0.59 -0.64 -0.33 -0.42	1/18 (2.34)
S25M/Y31G/S33Q/N35A/K36Q/W56E	0.40 0.40 0.81 0.47 0.28 0.30	0/18
S25L/S26Q/Q27F/V29W/L30W/S38A/W56S/T59Q/S62V	1.05 0.75 0.74 1.17 1.46 0.88	1/18 (1.70)
S25V/L30D/Y31G/E32Q/S38A/W56A/S62D	0.01 0.24 0.22 0.17 0.18 0.32	3/18 (3.08)
S25L/S26Q/V29D/S38N/W56N/S58T/T59L/S62Q	-0.30 -0.47 -0.31 -0.51 -0.55 -0.18	2/18 (2.68)